Measurements: patent US9878046B2, “Adverse side-effects associated with administration of an anti-hyaluronan agent and methods for ameliorating or preventing the side-effects” (Halozyme, Inc., priority 2010, dated 2018)

Conditions: IV twice weekly 0.2, 2.0 or 10.5 mg/kg/dose, 4 weeks

B1: PEGPH20 (protein)
chain: LNFRAPPVIPNVPFLWAWNAPSEFCLGKFDEPLDMSLFSFIGSPRINATGQGVTIFYVDRLGYYPYIDSITGVTVNGGIPQKISLQDHLDKAKKDITFYMPVDNLGMAVIDWEEWRPTWARNWKPKDVYKNRSIELVQQQNVQLSLTEATEKAKQEFEKAGKDFLVETIKLGKLLRPNHLWGYYLFPDCYNHHYKKPGYNGSCFNVEIKRNDDLSWLWNESTALYPSIYLNTQQSPVAATLYVRNRVREAIRVSKIPDAKSPLPVFAYTRIVFTDQVLKFLSQDELVYTFGETVALGASGIVIWGTLSIMRSMKSCLLLDNYMETILNPYIINVTLAAKMCSQVLCQEQGVCIRKNWNSSDYLHLNPDNFAIQLEKGGKFTVRGKPTLEDLEQFSEKFYCSCYSTLSCKEKADVKDTDAVDVCIADGVCIDAFLKPPMETEEPQIFY
- tolerability of twice-weekly IV administration: well tolerated
